The subject of this data set is N=C(N)NCCC[C@H](N)C(=O)O. The data set can be described thus: purified protein, by the assay type. As to conditions: other: substrate Km used in the Ki equation; pH 7.4; 37.0 °C.

This is an account of results in PMC3983353 (Journal of Medicinal Chemistry, 2014).

By Km is commonly meant the concentration of substrate that gives half-maximal velocity. Regarding murine macrophage iNOS (Mus musculus), the Km turned out to be 8.2 µM.
